# Structures can show the parent of a compound that is named as a salt.
# Test system: lymphocytic leukemia P388
# Assay: in vivo lymphocytic leukemia P388 test
# Set-up: species or system CD2 F1 mice
# Conditions: Mus musculus, P388, ip, 120 h, intraperitoneally once daily for five days, read-out: P388 in vivo T/C × 100
# Description: Another test protocol is the in vivo lymphocytic leukemia P388 test. The animals used are either male or female CD2 F1 mice, six or seven animals per test group. The tumor transplant is by intraperitoneal injection of dilute ascitic fluid containing cells of lymphocytic leukemia P388. The test compounds are administered intraperitoneally once daily for five consecutive days at various doses following tumor inoculation. The animals are weighed and survivors are recorded on a regular basis for 30 days. A compound is designated "toxic" if, at a given dose, all animals died prior to four days after the first injection of drug. A ratio of survival time for treated (T)/control (C) animals is calculated. A criterion for efficacy is a ratio T/C times 100 greater than or equal to 125. See Cancer Chemotherapy Reports, Part 3, 3, 1 (1972) for a comprehensive discussion of the protocol.
smiles,measurement,value
"CC[N+]([O-])(CC)CCn1nc2c3c(c([N+](=O)[O-])ccc31)Nc1ccccc1-2 [Example 35, N,N-Diethyl-5-nitropyrazolo[3,4,5-kl]acridine-2(6H)-ethanamine, N-oxide, methanesulfonate salt (5:6), hydrate (4:3)]",response vs control in vivo at 6.25 mg/kg,128%
